This is an account of results in article PMC5724754 (Cell reports, 2015).

The labels stand for the following.
T1: FLAG-CSN2 (human, UniProt P61201 1-443)
T1 sequence: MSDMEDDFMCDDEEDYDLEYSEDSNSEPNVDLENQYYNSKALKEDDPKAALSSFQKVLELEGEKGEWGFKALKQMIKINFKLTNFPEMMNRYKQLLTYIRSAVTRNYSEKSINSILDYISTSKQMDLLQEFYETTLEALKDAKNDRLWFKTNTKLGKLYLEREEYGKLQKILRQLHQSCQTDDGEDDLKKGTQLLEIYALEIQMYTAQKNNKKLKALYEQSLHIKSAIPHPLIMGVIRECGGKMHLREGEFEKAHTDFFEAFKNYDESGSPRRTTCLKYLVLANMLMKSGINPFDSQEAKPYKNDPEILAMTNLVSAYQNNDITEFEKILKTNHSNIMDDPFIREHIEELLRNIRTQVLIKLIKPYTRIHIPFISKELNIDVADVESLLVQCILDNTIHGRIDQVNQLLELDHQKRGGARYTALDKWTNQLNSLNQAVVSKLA

B1: CSN8 (natural protein)
chain: MPVAVMAESAFSFKKLLDQCENQELEAPGGIATPPVYGQLLALYLLHNDMNNARYLWKRIPPAIKSANSELGGIWSVGQRIWQRDFPGIYTTINAHQWSETVQPIMEALRDATRRRAFALVSQAYTSIIADDFAAFVGLPVEEAVKGILEQGWQADSTTRMVLPRKPVAGALDVSFNKFIPLSEPAPVPPIPNEQQLARLTDYVAFLEN
B2: CSN7b (natural protein)
chain: MAGEQKPSSNLLEQFILLAKGTSGSALTALISQVLEAPGVYVFGELLELANVQELAEGANAAYLQLLNLFAYGTYPDYIANKESLPELSTAQQNKLKHLTIVSLASRMKCIPYSVLLKDLEMRNLRELEDLIIEAVYTDIIQGKLDQRNQLLEVDFCIGRDIRKKDINNIVKTLHEWCDGCEAVLLGIEQQVLRANQYKENHNRTQQQVEAEVTNIKKTLKATASSSAQEMEQQLAERECPPHAEQRQPTKKMSKVKGLVSSRH
B3: CSN6 (natural protein)
chain: MAAAAAAAAATNGTGGSSGMEVDAAVVPSVMACGVTGSVSVALHPLVILNISDHWIRMRSQEGRPVQVIGALIGKQEGRNIEVMNSFELLSHTVEEKIIIDKEYYYTKEEQFKQVFKELEFLGWYTTGGPPDPSDIHVHKQVCEIIESPLFLKLNPMTKHTDLPVSVFESVIDIINGEATMLFAELTYTLATEEAERIGVDHVARMTATGSGENSTVAEHLIAQHSAIKMLHSRVKLILEYVKASEAGEVPFNHEILREAYALCHCLPVLSTDKFKTDFYDQCNDVGLMAYLGTITKTCNTMNQFVNKFNVLYDRQGIGRRMRGLFF

The target of this experiment is T1, FLAG-CSN2. The experiment can be described thus: native MS.
For the molecule B1, the binding result is “binds”.
Then B2, with “binds”.
For B3 the value was “binds”.
